Yeast mating assay B: variants of the scFv Ab-14

All variants were tested on one target, the spike HR2 peptide PDVDLGDISGINAS (SARS-CoV-2).

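The starting antibody came from a phage panning campaign against this peptide. This is the validation round: designs drawn from the data on random variants, tested in the same kind of assay. Their group label is 14H_En_Gen (En: ensemble of fine-tuned language models; Gen: genetic algorithm). The assay is AlphaSeq: two haploid yeast populations carry antibody and antigen on their surface. Mating (16 h, 30 °C) was followed by selection of diploids and sequencing of their barcodes. A regression on co-assayed BCL2-family reference pairs converts the normalised counts of each replicate to an apparent Kd. There are six technical replicates.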

Parent scFv Ab-14: VH joined to VL by a 15-residue (Gly4Ser)3 linker. Changes lie in the heavy chain CDRs alone.
VH: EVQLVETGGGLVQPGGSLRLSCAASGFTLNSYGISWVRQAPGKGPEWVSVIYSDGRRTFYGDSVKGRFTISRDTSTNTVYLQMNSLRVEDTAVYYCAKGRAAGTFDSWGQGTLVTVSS
VL: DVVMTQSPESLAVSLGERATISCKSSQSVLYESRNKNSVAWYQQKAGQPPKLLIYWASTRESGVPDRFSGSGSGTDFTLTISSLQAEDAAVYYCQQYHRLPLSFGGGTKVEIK

The parent's heavy chain CDRs are GFTLNSYGIS, VIYSDGRRTFYGDSVK, GRAAGTFDS; each variant's own CDRs replace them letter for letter.
Affinities are written as log10 Kd with Kd in nM; a lower number is a better binder.
Replicates are averaged; those with no signal do not enter the mean.
An entry "nd" has no value in the source: the pair was not observed among the diploids in that replicate. This suggests poor binding but is not conclusive.
Empty control strains, which show no peptide, gave a signal in 1% of pairings with all heavy chain designs; the median was 2.08 and 95% of these signals were weaker than 0.84. No background was subtracted. The control count says in how many pairings with the empty strains this scFv gave a signal, with their mean in brackets.

| # | CDR-H1 | CDR-H2 | CDR-H3 | replicates, log10 nM | mean log10 Kd (nM) | signal with controls |
|---|---|---|---|---|---|---|
| 1 | GFDLNEYGIS | VIYADGQRTAYADSVK | GNQAGTFDI | -0.25 / -0.67 / -0.47 / -0.64 / -0.22 / -0.62 | -0.48 | 0 of 18 |
| 2 | GFDLEEYGIS | VIYADGKRTAYSDSVK | GNVAGTFDL | 0.29 / -0.27 / -0.30 / -0.72 / -0.32 / 0.13 | -0.20 | 0 of 18 |
| 3 | GFDLNEYGIS | VIYADGMRTYYADSVK | GQNAGTFDI | 0.58 / 0.44 / 0.49 / 0.16 / 0.24 / 1.31 | 0.54 | 0 of 18 |
| 4 | GFDLNEYGIS | VIYADGMRTSYTDSVK | GNVAGTFDV | -0.54 / -0.74 / -0.50 / -0.69 / -0.32 / 0.01 | -0.46 | 0 of 18 |
| 5 | GFDLDEYGIS | VIYADGMRTAYSDSVK | GNNAGTFDM | -0.32 / -0.17 / -0.53 / -0.81 / -0.02 / -0.48 | -0.39 | 0 of 18 |
| 6 | GFDLDEYGIS | VIYADGSRTAYADSVK | GNNAGTFDV | -0.29 / -0.18 / -0.17 / -0.26 / -0.58 / -0.18 | -0.28 | 0 of 18 |
| 7 | GFDLNEYGIS | VIYADGVRTAYSDSVK | GSNAGTFDV | -0.29 / -0.21 / -0.23 / -0.64 / -0.71 / -0.44 | -0.42 | 0 of 18 |
| 8 | GFDLDEYGIS | VIYADGKRTAYSDSVK | GNVAGTFDV | -0.18 / -0.28 / -0.51 / -0.60 / -0.54 / -0.51 | -0.44 | 0 of 18 |
| 9 | GFDLNEYGIS | VIYADGMRTYYADSVK | GNTAGTFDM | -0.16 / -0.51 / -0.76 / -0.32 / -0.54 / -0.58 | -0.48 | 1 of 18 (2.39) |
| 10 | GFDLDEYGIS | VIYADGKRTAYVDSVK | GTNAGTFDV | 1.25 / 0.49 / 1.70 / 0.54 / 2.21 / 1.04 | 1.20 | 0 of 18 |
| 11 | GFDLDEYGIS | VIYADGMRTAYADKVK | GNNAGTFDL | -0.53 / -0.46 / -0.19 / -0.68 / -0.55 / -0.37 | -0.47 | 0 of 18 |
| 12 | GFDLDEYGIS | VIYADGQRTAYADKVK | GNQAGTFDV | 0.20 / -0.37 / -0.11 / -0.28 / 0.05 / 0.13 | -0.06 | 0 of 18 |
| 13 | GFDLDEYGIS | VIYADGKRTAYTDSVK | GGNAGTFDV | -0.03 / -0.27 / -0.24 / -0.49 / -0.44 / -0.15 | -0.27 | 0 of 18 |
| 14 | GFDLDEYGIS | VIYADGMRTAYADNVK | GETAGTFDL | 0.47 / -0.89 / -0.12 / -0.76 / -0.99 / -0.37 | -0.44 | 0 of 18 |
| 15 | GFDLNEYGIS | VIYADGVRQAYSDSVK | GNVAGTFDV | -0.58 / -0.32 / -0.58 / -0.49 / -0.54 / -0.01 | -0.42 | 1 of 18 (1.26) |
| 16 | GFDLEDYGIS | VIYADGMRTAYSDSVK | GNVAGTFDV | -0.60 / -0.12 / -0.41 / -1.22 / -0.21 / -0.41 | -0.50 | 0 of 18 |
| 17 | GFDLNEYGIS | VIYADGMRTAYTDSVK | GNTAGTFDQ | -0.27 / -0.33 / -0.60 / -0.30 / -0.67 / 0.02 | -0.36 | 0 of 18 |
| 18 | GFDLNEYGIS | VIYADGMRTVYADSVK | GNVAGTFDV | -0.15 / -1.12 / -1.07 / -0.88 / -0.56 / -0.59 | -0.73 | 0 of 18 |
| 19 | GFDLNEYGIS | VIYADGKRTAYSDSVK | GETAGTFDV | -0.24 / -0.15 / -0.22 / -0.17 / -0.29 / -0.06 | -0.19 | 1 of 18 (2.52) |
| 20 | GFNLDEYGIS | VIYADGMRTAYSDSVK | GEVAGTFDI | 0.16 / -0.74 / -0.32 / -0.46 / -1.03 / -0.46 | -0.47 | 1 of 18 (3.00) |
| 21 | GFDLNEYGIS | VIYADGMRTAYIDSVK | GNVAGTFDQ | -0.10 / -0.08 / -0.39 / -0.21 / -0.24 / -0.15 | -0.20 | 0 of 18 |
| 22 | GFDLNEYGIS | VIYADGMRTSYADDVK | GENAGTFDQ | -0.14 / 0.01 / -0.44 / -0.38 / -0.39 / -0.13 | -0.25 | 0 of 18 |
| 23 | GFDLDEYGIS | VIYADGMRTAYTDSVK | GNNAGTFDT | -0.45 / -0.74 / -0.86 / -0.86 / -0.58 / -0.38 | -0.65 | 0 of 18 |
| 24 | GFDLDEYGIS | VIYADGVRTAYADSVK | GETAGTFDV | -0.11 / -0.50 / -0.39 / -0.58 / -0.41 / 0.26 | -0.29 | 0 of 18 |
| 25 | GFDLNEYGIS | VIYADGVRTAYTDSVK | GEVAGTFDV | -0.37 / -0.35 / 0.11 / -0.48 / 0.23 / -0.34 | -0.20 | 0 of 18 |
| 26 | GFDLNEYGIS | VIYADGKRTAYADDVK | GNQAGTFDM | -0.11 / -0.19 / -0.30 / -0.60 / -0.06 / -0.33 | -0.27 | 2 of 18 (1.73) |
| 27 | GFDLNEYGIS | VIYADGMRTQYADSVK | GNVAGTFDI | -0.45 / nd / 0.22 / -0.48 / 0.83 / 0.21 | 0.06 | 0 of 18 |
| 28 | GFDLDEYGIS | VIYADGQRTFYADSVK | GENAGTFDI | 0.21 / 1.02 / 0.12 / -0.30 / 0.03 / 1.54 | 0.44 | 0 of 18 |
| 29 | GFDLDEYGIS | VIYADGSRTAYADSVK | GENAGTFDT | 0.88 / 1.59 / 0.65 / -0.10 / 0.06 / 0.27 | 0.56 | 0 of 18 |
| 30 | GFDLNEYGIS | VIYADGARTAYADSVK | GNVAGTFDV | -0.40 / -0.93 / -0.37 / -0.49 / -1.16 / -0.79 | -0.69 | 0 of 18 |
| 31 | GFDLEDYGIS | VIYADGRRTAYADSVK | GNVAGTFDV | -0.70 / -0.87 / -0.65 / -0.99 / -1.00 / -0.60 | -0.80 | 0 of 18 |
| 32 | GFDLNEYGIS | VIYADGVRTAYTDSVK | GNNAGTFDM | -0.38 / -0.57 / -0.01 / -0.40 / 0.31 / -0.55 | -0.27 | 0 of 18 |
| 33 | GFDLNEYGIS | VIYADGQRTAYADSVK | GNNAGTFDI | -0.19 / -1.21 / -0.80 / -1.07 / -1.16 / -0.51 | -0.82 | 0 of 18 |
| 34 | GFDLNEYGIS | VIYADGKRTAYVDSVK | GNTAGTFDQ | -0.81 / -1.21 / -1.63 / -1.58 / -1.44 / -1.70 | -1.40 | 0 of 18 |
| 35 | GFDLNEYGIS | VIYADGSRTAYSDSVK | GQVAGTFDV | -0.52 / -0.25 / -0.15 / -0.67 / -0.64 / -0.71 | -0.49 | 0 of 18 |
| 36 | GFDLNEYGIS | VIYADGMRTAYSDNVK | GENAGTFDL | 0.60 / -0.74 / -0.31 / -0.06 / -0.96 / -0.38 | -0.31 | 0 of 18 |
| 37 | GFDLDEYGIS | VIYADGMRTAYADTVK | GNVAGTFDV | 0.06 / 0.31 / -0.14 / 0.18 / 0.02 / 0.26 | 0.12 | 1 of 18 (2.87) |
| 38 | GFDLDEYGIS | VIYADGQRTAYADSVK | GNNAGTFDI | -0.56 / -0.93 / -0.55 / -1.20 / -1.14 / -0.99 | -0.90 | 0 of 18 |
| 39 | GFDLDEYGIS | VIYADGVRTAYSDSVK | GNVAGTFDT | -0.51 / -0.38 / -0.63 / -0.47 / -0.72 / -0.07 | -0.46 | 0 of 18 |
| 40 | GFDLNEYGIS | VIYADGMRTAYVDSVK | GNNAGTFDI | -0.13 / -0.09 / -0.42 / -0.21 / -0.02 / -0.19 | -0.17 | 0 of 18 |
| 41 | GFDLDEYGIS | VIYADGMRTAYSDSVK | GEVAGTFDQ | -1.10 / -0.32 / -1.26 / -1.25 / -1.18 / -0.91 | -1.00 | 0 of 18 |
| 42 | GFDLDEYGIS | VIYADGQRTFYADSVK | GNVAGTFDQ | -0.39 / -0.46 / -0.70 / -0.53 / -0.45 / -0.64 | -0.53 | 0 of 18 |
| 43 | GFDLNEYGIS | VIYADGMRTFYADSVK | GNVAGTFDQ | -0.49 / -0.33 / -0.58 / -0.51 / -0.61 / -0.74 | -0.54 | 0 of 18 |
| 44 | GFDLDEYGIS | VIYADGQRTAYSDSVK | GNVAGTFDQ | -0.21 / -0.37 / -0.39 / -0.84 / -0.64 / -0.14 | -0.43 | 0 of 18 |
| 45 | GFDLNEYGIS | VIYADGKRTAYVDSVK | GANAGTFDV | 1.11 / 0.15 / 0.11 / -0.06 / 0.54 / 0.07 | 0.32 | 0 of 18 |
| 46 | GFDLNEYGIS | VIYADGRRTAYSDSVK | GQVAGTFDV | -0.29 / -0.21 / -0.16 / -0.48 / -0.15 / -0.07 | -0.23 | 0 of 18 |
| 47 | GFDLDEYGIS | VIYADGRRTAYADSVK | GEVAGTFDV | 0.08 / -0.47 / -0.67 / -0.77 / -0.53 / -0.53 | -0.48 | 0 of 18 |
| 48 | GFDLDEYGIS | VIYADGKRTAYANSVK | GENAGTFDV | 0.19 / -0.16 / -0.72 / -0.71 / -0.64 / -0.35 | -0.40 | 0 of 18 |

Values of this round are not directly comparable with the first-round values of the same sequences.
Of ten entries with the parent sequence, four were seen in most replicates (averages 0.34 to 2.37), three in one and three in none, so single entries are noisy.
The authors' rule: three or more of the six replicates give a measured affinity, fewer mean a poor binder.

Values reported by Li et al. 2023, doi:10.1038/s41467-023-39022-2 (FLAb copy).